{"source": "patent US7582618B2", "about": "(priority 2002, dated 2009)", "key": {"[1]": {"experiment": "In vitro stability in human plasma", "conditions": "37° C., after 10 hours"}, "[2]": {"system": "genotype 1 HCV (serum HCV RNA)", "conditions": "16.6 mg/kg/day QD PO, day 7"}, "[3]": {"biological_target": "T1, human DNA polymerase α (Homo sapiens, UniProt P09884)", "T1 sequence (P09884 1-1462)": "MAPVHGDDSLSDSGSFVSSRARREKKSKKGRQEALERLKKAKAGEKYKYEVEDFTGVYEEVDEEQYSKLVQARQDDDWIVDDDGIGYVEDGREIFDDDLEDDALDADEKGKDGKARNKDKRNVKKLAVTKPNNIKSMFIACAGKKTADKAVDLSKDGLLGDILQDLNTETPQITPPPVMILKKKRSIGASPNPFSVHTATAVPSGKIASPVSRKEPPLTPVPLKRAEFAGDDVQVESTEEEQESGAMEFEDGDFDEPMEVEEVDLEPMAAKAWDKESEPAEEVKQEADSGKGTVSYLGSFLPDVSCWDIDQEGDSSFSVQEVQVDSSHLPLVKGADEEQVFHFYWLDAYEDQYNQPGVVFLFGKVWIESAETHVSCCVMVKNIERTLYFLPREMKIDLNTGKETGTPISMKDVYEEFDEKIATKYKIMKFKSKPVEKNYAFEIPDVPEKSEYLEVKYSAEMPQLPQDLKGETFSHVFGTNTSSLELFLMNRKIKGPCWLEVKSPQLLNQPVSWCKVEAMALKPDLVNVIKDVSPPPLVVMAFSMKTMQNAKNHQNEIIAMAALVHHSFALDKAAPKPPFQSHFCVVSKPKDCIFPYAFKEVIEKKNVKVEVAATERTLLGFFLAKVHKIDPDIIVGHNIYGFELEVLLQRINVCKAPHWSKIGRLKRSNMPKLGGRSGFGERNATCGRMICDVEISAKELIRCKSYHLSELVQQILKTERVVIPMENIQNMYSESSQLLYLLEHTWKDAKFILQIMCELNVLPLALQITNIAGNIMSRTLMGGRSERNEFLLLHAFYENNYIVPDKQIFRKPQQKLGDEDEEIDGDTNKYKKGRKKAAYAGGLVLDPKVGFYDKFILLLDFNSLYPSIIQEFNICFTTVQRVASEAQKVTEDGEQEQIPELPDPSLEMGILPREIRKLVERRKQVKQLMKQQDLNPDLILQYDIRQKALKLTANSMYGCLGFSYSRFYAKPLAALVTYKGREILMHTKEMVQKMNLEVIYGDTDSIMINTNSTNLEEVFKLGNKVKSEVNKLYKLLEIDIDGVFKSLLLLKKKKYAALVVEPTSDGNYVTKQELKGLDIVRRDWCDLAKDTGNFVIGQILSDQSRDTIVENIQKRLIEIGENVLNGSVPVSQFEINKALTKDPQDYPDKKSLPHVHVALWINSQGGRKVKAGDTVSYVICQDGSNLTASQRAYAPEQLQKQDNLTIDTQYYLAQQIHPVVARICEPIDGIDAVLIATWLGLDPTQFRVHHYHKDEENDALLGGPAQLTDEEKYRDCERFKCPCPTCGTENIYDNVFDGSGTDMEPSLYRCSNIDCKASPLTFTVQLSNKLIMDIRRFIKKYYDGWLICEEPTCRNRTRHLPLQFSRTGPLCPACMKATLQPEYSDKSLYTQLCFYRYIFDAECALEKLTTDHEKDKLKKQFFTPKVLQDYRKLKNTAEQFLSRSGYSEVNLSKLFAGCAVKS", "experiment": "Inhibition of human DNA polymerases", "type": "biochemical"}, "[4]": {"biological_target": "human DNA polymerase β (Homo sapiens, UniProt P06746)", "experiment": "Inhibition of human DNA polymerases", "type": "biochemical"}, "[5]": {"biological_target": "T2, human DNA polymerase γ (Homo sapiens, UniProt P54098)", "T2 sequence (P54098 1-1239)": "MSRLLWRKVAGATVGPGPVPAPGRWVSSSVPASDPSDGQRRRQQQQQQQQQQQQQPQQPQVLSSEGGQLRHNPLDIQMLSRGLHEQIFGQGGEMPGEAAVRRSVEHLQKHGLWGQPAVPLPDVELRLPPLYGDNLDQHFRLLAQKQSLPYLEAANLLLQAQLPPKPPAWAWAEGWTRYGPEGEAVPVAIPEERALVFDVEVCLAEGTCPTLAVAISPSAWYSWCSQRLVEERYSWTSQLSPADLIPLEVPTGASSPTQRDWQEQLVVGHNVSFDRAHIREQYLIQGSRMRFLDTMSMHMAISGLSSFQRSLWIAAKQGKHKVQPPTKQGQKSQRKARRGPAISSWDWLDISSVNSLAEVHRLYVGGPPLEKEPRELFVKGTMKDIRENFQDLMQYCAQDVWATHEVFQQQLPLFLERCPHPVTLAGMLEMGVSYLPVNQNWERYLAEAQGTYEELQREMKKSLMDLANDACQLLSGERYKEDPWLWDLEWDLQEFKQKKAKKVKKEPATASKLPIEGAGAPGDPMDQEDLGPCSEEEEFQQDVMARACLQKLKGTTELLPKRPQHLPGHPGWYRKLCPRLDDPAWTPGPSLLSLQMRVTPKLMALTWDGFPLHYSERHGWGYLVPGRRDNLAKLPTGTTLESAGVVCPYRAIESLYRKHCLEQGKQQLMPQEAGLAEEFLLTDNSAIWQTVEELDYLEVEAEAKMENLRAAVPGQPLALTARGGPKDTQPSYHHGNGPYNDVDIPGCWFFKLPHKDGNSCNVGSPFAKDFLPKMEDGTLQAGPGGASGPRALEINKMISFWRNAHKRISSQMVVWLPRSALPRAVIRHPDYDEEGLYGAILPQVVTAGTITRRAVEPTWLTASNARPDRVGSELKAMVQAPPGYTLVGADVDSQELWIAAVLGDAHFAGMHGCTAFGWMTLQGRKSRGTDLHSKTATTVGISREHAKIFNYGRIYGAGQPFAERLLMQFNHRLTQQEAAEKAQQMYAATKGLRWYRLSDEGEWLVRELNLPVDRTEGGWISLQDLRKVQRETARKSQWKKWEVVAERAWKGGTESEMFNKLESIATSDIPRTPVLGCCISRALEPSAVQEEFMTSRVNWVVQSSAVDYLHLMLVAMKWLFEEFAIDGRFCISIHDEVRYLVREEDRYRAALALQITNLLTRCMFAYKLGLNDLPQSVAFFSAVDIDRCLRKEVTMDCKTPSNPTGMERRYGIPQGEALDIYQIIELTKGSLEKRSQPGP", "experiment": "biochemical"}, "[6]": {"experiment": "Phosphorylation assay of nucleoside to active triphosphate", "conditions": "human, HepG2 cells"}, "[7]": {"experiment": "Phosphorylation assay of nucleoside to active triphosphate", "conditions": "bovine, MDBK kidney cells"}, "[8]": {"system": "BVDV (strain NADL) in MDBK cells", "experiment": "BVDV cell protection assay (CPA)", "type": "cell-based", "conditions": "Bovine viral diarrhea virus isolates and strains, 96 h, BVDV NADL cp, de novo infection, 4 days"}, "[9]": {"system": "HCV", "conditions": "ribavirin alone; Davis 2000; cited from earlier work"}, "[10]": {"experiment": "Cytotoxicity (cell proliferation) assay", "conditions": "human, Huh7 hepatoma cells"}, "[11]": {"experiment": "Cytotoxicity (cell proliferation) assay", "conditions": "human, HepG2 hepatoma cells, CC50, HepG2, rapid cell division"}, "[12]": {"experiment": "Cytotoxicity on uninfected cells in parallel to the CPA", "conditions": "bovine, uninfected MDBK kidney cells"}, "[13]": {"experiment": "Cellular DNA or RNA synthesis ([3H]-thymidine / [3H]-uridine incorporation)", "conditions": "human, HepG2 cells"}, "[14]": {"system": "HepG2 cells", "experiment": "Mitochondrial DNA content (mtDNA/nuclear DNA)", "type": "cell-based, human", "conditions": "HepG2, 14 days"}, "[15]": {"experiment": "Exposure of chimpanzees to mCyd (serum HPLC)", "conditions": "chimpanzee, oral val-mCyd; lower limit of quantification 0.4 μM (100 ng/mL)"}}, "note": "“And” between values parts separate entries of the source, which are not always exact repeats. Identical values can stand only once. Counter-ions that a name gives are not always drawn.", "data": [{"smiles": "CC(C)C(N)C(=O)OC1[C@@H](CO)O[C@@H](n2ccc(N)nc2=O)C1(C)O", "note": "(stereo in doubt) [val-mCyd, 2-Amino-3-methyl-butyric acid 5-(4-amino-2-oxo-2H-pyrimidine-1-yl)-4-hydroxy-2 hydroxy-methyl-4-methyl-tetrahydro-furan-3-yl ester (dihydrochloride salt)]", "values": [{"measurement": "input val-mCyd remaining", "setting": "[1]", "result": 2, "unit": "%"}, {"measurement": "mean reduction from baseline HCV viral load", "setting": "[2]", "result": 1.05, "unit": "log10"}]}, {"smiles": "C[C@@]1(O)[C@H](O)[C@@H](COP(=O)(O)OP(=O)(O)OP(=O)(O)O)O[C@H]1n1ccc(N)nc1=O", "note": "[mCyd-TP, 2′-C-methyl-cytidine-5′-triphosphate]", "values": [{"measurement": "IC50", "setting": "[3]", "result": "880 to 1000 µM and > 1000 µM"}, {"measurement": "IC50", "setting": "[4]", "result": "880 to 1000", "unit": "µM"}, {"measurement": "IC50", "setting": "[5]", "result": "880 to 1000", "unit": "µM"}, {"measurement": "half-life at 10 μM", "setting": "[6]", "result": "13.9 ± 2.2", "unit": "h"}, {"measurement": "half-life at 10 μM", "setting": "[7]", "result": "7.6 ± 0.6", "unit": "h"}]}, {"smiles": "NC(=O)c1ncn([C@@H]2O[C@H](CO)[C@@H](O)[C@H]2O)n1", "note": "[ribavirin, 1-β-D-ribofuranosyl-1-1,2,4-triazole-3-carboxamide, reference compound]", "values": [{"measurement": "EC50", "setting": "[8]", "result": "> 4.3", "unit": "µM"}, {"measurement": "effect on serum levels of HCV-RNA", "setting": "[9]", "result": "does not lower serum levels of HCV-RNA"}, {"measurement": "CC50 at 4 days", "setting": "[10]", "result": "35 to 36", "unit": "µM"}, {"measurement": "CC50 at 4 days", "setting": "[11]", "result": "35 to 36", "unit": "µM"}, {"measurement": "CC50 at 4 days", "setting": "[12]", "result": "4.3 ± 0.6", "unit": "µM"}, {"measurement": "CC50", "setting": "[13]; probe [3H]-thymidine, CC50 DNA ([3H]Thymidine), 50% reduction of thymidine incorporation into cellular DNA", "result": 3.16, "unit": "µM"}, {"measurement": "CC50", "setting": "[13]; probe [3H]-uridine, CC50 RNA ([3H]Uridine), 50% reduction of uridine incorporation into cellular RNA", "result": 6.85, "unit": "µM"}]}, {"smiles": "Nc1ccn([C@H]2CC[C@@H](CO)O2)c(=O)n1", "note": "[ddC, zalcitabine, reference compound]", "values": [{"measurement": "reduction in mitochondrial DNA content", "setting": "[14]", "result": 80, "unit": "%"}, {"measurement": "IC50", "setting": "[4]", "result": 4.8, "unit": "µM"}, {"measurement": "IC50", "setting": "[5]", "result": 2.7, "unit": "µM"}]}, {"smiles": "C[C@@]1(O)[C@H](O)[C@@H](CO)O[C@H]1n1ccc(=O)[nH]c1=O", "note": "[mUrd, β-D-2′-C-methyl-ribofuranosyl uridine]", "values": [{"measurement": "mUrd in sera samples", "setting": "[15]", "result": "No mUrd was detected"}]}]}
